Protein sequences, listed by entry. Tags and fused reporters are not part of them. Lines headed by an entry give the natural chain unless they say otherwise; changes in a name come on top.
UniProt Q17339: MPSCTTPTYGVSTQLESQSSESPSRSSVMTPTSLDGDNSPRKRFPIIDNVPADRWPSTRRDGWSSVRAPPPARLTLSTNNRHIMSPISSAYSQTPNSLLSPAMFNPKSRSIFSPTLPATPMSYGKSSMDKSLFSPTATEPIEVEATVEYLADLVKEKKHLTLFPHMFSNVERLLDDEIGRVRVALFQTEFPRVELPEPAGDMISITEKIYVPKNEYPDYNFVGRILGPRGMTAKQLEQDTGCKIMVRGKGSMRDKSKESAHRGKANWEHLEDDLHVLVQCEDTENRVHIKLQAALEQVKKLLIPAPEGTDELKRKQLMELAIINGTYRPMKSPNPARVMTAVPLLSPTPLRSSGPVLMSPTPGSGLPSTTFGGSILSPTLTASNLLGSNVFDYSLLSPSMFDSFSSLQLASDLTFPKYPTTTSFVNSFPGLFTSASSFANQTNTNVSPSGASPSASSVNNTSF

The list shows a part of the results, in another mix than the full data. Activity calls are given as the source filed them.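 Rule for the calls: active = percent inhibition above a per-plate cutoff, the plate mean of test compounds plus 3 SD (cut at about 30% in these data); inactive = the rest.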
The molecules below were run against Female germline-specific tumor suppressor gld-1 (Caenorhabditis elegans) (UniProt Q17339) (assay: small molecules blocking C. elegans GLD-1 RNA recognition – biochemical, fluorescence polarization, primary screen (AID 2280;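 note: 0% = DMSO wells with GLD-1 and probe and 100% = wells lacking GLD-1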)). Conditions: purified GLD-1 + fluorescein TGE RNA, at 5.96 µM, stronger effect = higher value.
In the case of COc1ccc(N/C(=N/P(=O)(N2CCOCC2)N2CCOCC2)N2CCOCC2)cc1, the inhibition is reported as inactive: 1.3%.
In the case of O=C(OC1CN2CCC1CC2)C12CC3CC(CC(C3)C1)C2 (stereo not given), the inhibition is reported as inactive: 3.6%.
In the case of Cc1cc(=O)[nH]c(N[N+](=O)[O-])n1, the inhibition is reported as inactive: 7.19%.
For Cc1c2c(nc3ccccc13)SC(C(Cl)Cl)C2 (stereo not given), the inhibition was inactive: 4.58%.
In the case of COc1ccc2nc(NP(=O)(c3ccccc3)c3ccccc3)sc2c1, the inhibition is reported as inactive: 2.85%.
COc1cc(I)ccc1[As](=O)(O)O was tested, and the inhibition was inactive: -1.09%.
CC(C)c1ccc(OP(=O)(Nc2ccccn2)Oc2ccccc2F)cc1 (stereo not given) was tested, and the inhibition was inactive: -4.25%.
In the case of ClCCSc1nnc(-c2cccnc2)o1, the inhibition is reported as inactive: -2.56%.
For CC(C)NC(=O)NP(=O)(Oc1ccccc1)Oc1ccccc1, the inhibition was inactive: -3.11%.
With CCN(CC)C(=S)SC(NC=O)C(Cl)(Cl)Cl (stereo not given) the inhibition was inactive: 5.89%.
With O=[N+]([O-])c1cc([N+](=O)[O-])c(-c2ccn[nH]2)s1 the inhibition was inactive: -0.24%.
With O=[As](O)(c1ccc(O)cc1)c1ccccc1O the inhibition was inactive: -7.7%.
C[As](=O)(O)c1cccc(C(=O)O)c1 was tested, and the inhibition was inactive: 6.38%.
COc1cc(C(=O)NCC2(N3CCOCC3)CCCCC2)ccc1OCC(C)C was tested, and the inhibition was inactive: -0.86%.
In the case of Cc1ccc2nc3c(c(C)c2c1)CC(C(Cl)Cl)S3 (stereo not given), the inhibition is reported as inactive: -5.01%.
With Cc1ccc(OP(=O)(Nc2ccc([N+](=O)[O-])cn2)Oc2ccc(C)cc2)cc1 the inhibition was inactive: -4.2%.
With CCOC(=O)Nc1cccc([As](=O)(O)O)c1 the inhibition was inactive: 1.63%.
In the case of Cc1cc(SC(NC=O)C(Cl)(Cl)Cl)ncn1 (stereo not given), the inhibition is reported as inactive: 8.9%.
With O=P(Nc1ccccn1)(c1cccc2ccccc12)c1cccc2ccccc12 the inhibition was inactive: 3.73%.
CCOC(=O)Nc1ccc([As](=O)(O)O)c(O)c1 was tested, and the inhibition was inactive: 3.21%.
For Cc1cc(SC(NC(=O)c2ccccc2)C(Cl)(Cl)Cl)nc(C(C)C)n1 (stereo not given), the inhibition was inactive: -0.88%.
With CCOC(=O)c1ccc(NC(=O)C(C)(CCl)SC)cc1 (stereo not given) the inhibition was inactive: -1.61%.
With O=C(OC1CN2CCC1CC2)c1cccc([N+](=O)[O-])c1 (stereo not given) the inhibition was inactive: 6.6%.
In the case of CCC(C)N(CC(C)C)C(=S)SC(NC(C)=O)C(Cl)(Cl)Cl (stereo not given), the inhibition is reported as inactive: 5.55%.
For COP1(=S)c2c(C)nn(CCC#N)c2N=C(c2ccc(F)cc2)N1C (stereo not given), the inhibition was inactive: 1.13%.
With O=C(COc1ccccc1)OC1CN2CCC1CC2 (stereo not given) the inhibition was inactive: -2.67%.
With O=C(Nc1ccncc1[N+](=O)[O-])c1ccc([N+](=O)[O-])cc1[N+](=O)[O-] the inhibition was inactive: 5.83%.
With COc1ccccc1CNC(=O)COC(=O)C(O)(c1ccccc1)c1ccccc1 the inhibition was inactive: 2.26%.
For O=[As](O)(c1ccccc1Br)c1ccccc1Br, the inhibition was inactive: 0.58%.
In the case of CC1(CBr)Cn2c(nc3ccccc3c2=O)S1 (stereo not given), the inhibition is reported as inactive: -1.67%.
With CN(C(=O)Cc1ccc(Cl)c(Cl)c1)[C@@H]1CCCC[C@H]1N1CCCC1 the inhibition was inactive: 5.06%.
With CC(C)/C=N\N=C(\N)N[N+](=O)[O-] the inhibition was inactive: -1.71%.
With CCOP(=O)(Nc1ccc(C)cn1)OCC the inhibition was inactive: 4.67%.
In the case of CN(CCCl)Cc1cc(Cl)c(NC2=NCCN2)c(Cl)c1, the inhibition is reported as inactive: 4.48%.
For CCC1=CC2Cc3nc4ccc(Cl)cc4c(N)c3C(C1)C2 (stereo not given), the inhibition was inactive: -8.46%.
For O=P1(Nc2ccccn2)COc2ccccc2OC1, the inhibition was inactive: 4.49%.
With CCOP(=O)(NC(=NC(C)c1ccccc1)NC(C)c1ccccc1)OCC (stereo not given) the inhibition was inactive: -0.12%.
For Clc1n[nH]nc1-c1nn[nH][15n]1, the inhibition was inactive: 1.45%.
In the case of CC(C)(C)C(=O)NC(Sc1ncccn1)C(Cl)(Cl)Cl (stereo not given), the inhibition is reported as inactive: 3.84%.
In the case of O=P1(Nc2ncccn2)COc2ccccc2OC1, the inhibition is reported as inactive: 4.1%.
In the case of O=[As](O)(c1cccs1)c1cccs1, the inhibition is reported as inactive: -0.26%.
With Cc1ccc(OCC(=O)OC2CN3CCC2CC3)cc1 (stereo not given) the inhibition was inactive: 1.4%.
For NS(=O)(=O)c1cccc(NC(=O)COC(=O)C(O)(c2ccccc2)c2ccccc2)c1, the inhibition was inactive: 4.74%.
With O=P1(Nc2ccc(Br)cn2)COc2ccccc2OC1 the inhibition was inactive: 3.43%.
With Nc1cccc([As](=O)(O)c2ccccc2)c1 the inhibition was inactive: 4.9%.
In the case of Cc1nn(-c2ccccc2)c2c1P(=O)(N1CCOCC1)N(C)C(c1ccccc1)=N2 (stereo not given), the inhibition is reported as inactive: -6.63%.
In the case of Cc1ccc(C(=O)OC2CN3CCC2CC3)cc1 (stereo not given), the inhibition is reported as inactive: 5.64%.
With CC1CCC(C(C)C)C(OP(=O)(Nc2ccccn2)c2ccccc2)C1 (stereo not given) the inhibition was inactive: -1.31%.
In the case of O=C(/C=C/c1ccccc1)OC1CN2CCC1CC2 (stereo not given), the inhibition is reported as inactive: -1.78%.
CN(C)C1(CNC(=O)c2ccc(S(C)(=O)=O)cc2)CCCCC1 was tested, and the inhibition was inactive: -1.92%.
For NC(=O)Nc1ccc([As](=O)(O)O)cc1, the inhibition was inactive: -8.76%.
With O=[N+]([O-])c1ccc2c(c1)nnn2O the inhibition was inactive: -1.11%.
In the case of CN(C)C(=O)c1cc([N+](=O)[O-])cc2c1-c1c(cc([N+](=O)[O-])cc1[N+](=O)[O-])C2=O, the inhibition is reported as inactive: -5.87%.
In the case of CN(C(=O)Cc1ccc(Cl)c(Cl)c1)[C@H]1CC[C@@]2(CCCO2)C[C@@H]1N1CCCC1, the inhibition is reported as inactive: 1.1%.
N#CCCN(C(=O)COC(=O)C(O)(c1ccccc1)c1ccccc1)c1ccc(F)cc1 was tested, and the inhibition was inactive: 12.8%.
CN(C(=O)Cc1ccccc1)[C@@H]1CC[C@]2(CCCO2)C[C@H]1N1CCCC1 was tested, and the inhibition was inactive: 7.23%.
CCOP1(=S)c2c(C)nn(CCC#N)c2N=C(c2ccc(F)cc2)N1C (stereo not given) was tested, and the inhibition was inactive: -4%.
CS(=O)(=O)c1cc([N+](=O)[O-])c2no[n+]([O-])c2c1 was tested, and the inhibition was active: 32.2%.
In the case of CCOP1(=S)c2c(C)nn(CCC#N)c2N=C(c2ccccc2F)N1C (stereo not given), the inhibition is reported as inactive: 2.84%.
In the case of O=P(Nc1nccs1)(Oc1ccccc1)Oc1ccccc1, the inhibition is reported as inactive: 2.78%.
O=P(Nc1nccs1)(c1ccccc1)c1nc2ccccc2s1 (stereo not given) was tested, and the inhibition was inactive: 16%.
With O=C(O)COc1ccc([As](=O)(O)O)cc1[N+](=O)[O-] the inhibition was inactive: 7.67%.
Nc1ccccc1[As](=O)(O)c1ccccc1 was tested, and the inhibition was inactive: -2.51%.
In the case of CCCOP(=S)(Nc1nc(N)cc(=O)[nH]1)OCCC, the inhibition is reported as inactive: 2.06%.
Cc1ccc(NCCc2c([N+](=O)[O-])cc([N+](=O)[O-])cc2[N+](=O)[O-])cc1 was tested, and the inhibition was inactive: 1.98%.

— PubChem BioAssay AID2280 (The Scripps Research Institute Molecular Screening Center, 2010)
